The values that follow are results of earlier work, collected in patent US11219580B2, “Oral composition” (Andalay Technologies Limited, priority 2016, dated 2022).

The data set deals with rat. The settings on record: cited from earlier work.

Sorbitan monolaurate: the LD50 rat is 36,700 μL/kg.
